Test results taken from US9750747B2, “Treatments involving eslicarbazepine acetate or eslicarbazepine” (BAIL-PORTELA & CA, S.A., priority 2011, dated 2017).

Amino acid sequences for entries named in this document (tags omitted). Residues count along the entry.
UniProt P14867, 28-456: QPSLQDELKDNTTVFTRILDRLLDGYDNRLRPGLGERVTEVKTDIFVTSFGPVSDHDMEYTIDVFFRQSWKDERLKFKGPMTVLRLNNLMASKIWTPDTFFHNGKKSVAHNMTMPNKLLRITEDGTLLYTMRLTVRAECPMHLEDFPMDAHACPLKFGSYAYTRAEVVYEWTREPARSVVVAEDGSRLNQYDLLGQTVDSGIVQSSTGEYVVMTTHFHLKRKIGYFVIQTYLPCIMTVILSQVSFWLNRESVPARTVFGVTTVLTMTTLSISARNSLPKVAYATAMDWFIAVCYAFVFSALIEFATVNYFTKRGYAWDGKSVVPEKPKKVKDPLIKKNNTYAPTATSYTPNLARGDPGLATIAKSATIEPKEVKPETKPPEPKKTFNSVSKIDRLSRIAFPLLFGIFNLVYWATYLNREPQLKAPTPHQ
UniProt P18507, 40-475: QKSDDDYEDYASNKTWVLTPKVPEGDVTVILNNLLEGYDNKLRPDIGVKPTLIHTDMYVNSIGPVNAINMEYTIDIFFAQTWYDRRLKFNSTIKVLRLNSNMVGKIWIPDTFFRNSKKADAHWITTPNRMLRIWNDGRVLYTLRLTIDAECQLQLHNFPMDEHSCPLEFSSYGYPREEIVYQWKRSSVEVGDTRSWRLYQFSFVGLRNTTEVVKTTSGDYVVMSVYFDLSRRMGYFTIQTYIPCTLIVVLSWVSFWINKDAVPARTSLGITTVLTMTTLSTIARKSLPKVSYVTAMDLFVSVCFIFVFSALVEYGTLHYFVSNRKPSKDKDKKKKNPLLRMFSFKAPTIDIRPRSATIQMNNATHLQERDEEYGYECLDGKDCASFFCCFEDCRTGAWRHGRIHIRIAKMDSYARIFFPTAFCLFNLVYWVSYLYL
UniProt P47870, 25-512 limits assumed: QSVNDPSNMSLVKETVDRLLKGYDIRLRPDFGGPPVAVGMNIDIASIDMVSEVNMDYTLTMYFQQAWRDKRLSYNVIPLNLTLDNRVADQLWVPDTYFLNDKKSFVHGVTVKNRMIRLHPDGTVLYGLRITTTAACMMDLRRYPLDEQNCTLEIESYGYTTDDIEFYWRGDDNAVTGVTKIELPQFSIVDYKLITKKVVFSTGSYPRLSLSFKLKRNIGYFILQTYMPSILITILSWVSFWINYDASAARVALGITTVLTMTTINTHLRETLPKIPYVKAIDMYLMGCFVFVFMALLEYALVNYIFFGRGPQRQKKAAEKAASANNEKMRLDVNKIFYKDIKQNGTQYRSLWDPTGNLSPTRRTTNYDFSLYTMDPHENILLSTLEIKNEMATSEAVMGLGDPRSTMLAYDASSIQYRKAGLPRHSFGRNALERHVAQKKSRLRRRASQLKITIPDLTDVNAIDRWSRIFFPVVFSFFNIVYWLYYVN

Molecular target: T1, α1β2γ2 GABA receptors (Homo sapiens, UniProt P14867+P18507+P47870)
T1 construct: host or cells: Ltk cells, expression induced with dexamethasone
Assay: whole-cell patch-clamp, sub-maximal GABA inward currents in stably transfected Ltk cells
Assay type: cell-based
Details: Table 2
Procedure: Carbamazepine (CBZ) aggravates absence seizures in ‘generalized absence epilepsy rats from. Strasbourg’. One putative mechanism for the aggravation is through its reported potentiation of GABAA currents. A study was carried out to determine the effect of eslicarbazepine, R-licarbazepine and carbamazepine on sub-maximal GABA currents in Ltk cells stably expressing α1β2γ2, α2β2γ2, α3β2γ2 or α5β2γ2 GABA-receptors. The whole-cell patch-clamp technique was used to investigate the effects of the test compounds on GABAA receptors.
Used Ltk cells were stably transfected with recombinant GABAA cDNAs: α1β2γ2, α2β2γ2, α3β2γ2 or α5β2γ2 (B'SYS GmbH, Switzerland). Cells were maintained in a humidified atmosphere (95% relative humidity) with 5% CO2 and were grown in D-MEM/F-12 (1×, liquid, with GlutaMax 1) supplemented with 9% foetal bovine serum and 0.9% Penicillin/Streptomycin solution (Gibco BRL). For the electrophysiological experiments cells were cultivated, at a density that enabled single cells to be measured, in medium without antibiotics or antimycotics. Cells were tested 24-48 hours following induction of transgene expression with dexamethasone.
Cells were continuously perfused with bath solution (NaCl 137 mM, KCl 4 mM, CaCl2 1.8 mM, MgCl2 1 mM, D-Glucose 10 mM HEPES 10 mM, pH 7.4). The whole-cell patch clamp recordings from transfected Ltk cells (voltage-clamped at a holding potential of −80 mV) were made using a EPC-7, HEKA Electronics amplifier. GABA inward-currents were measured upon application of 1 or 2 μM GABA to patch-clamped cells (at an EC5). […]
SigmaPlot 8.02 was used to calculate the means±SEM of relative peak′current blockade for each test item. Analysis of Variance (ANOVA) with post test multisample comparison (Dunnett) was conducted with GraphPad Prism 4 Software.

SMILES: CN1CCc2cc3c(cc2[C@H]1[C@@H]1OC(=O)c2c1ccc1c2OCO1)OCO3 [Bicucculline]
- Current stimulation (%) α1β2γ2 (0.1 μM with GABA at EC5, Ltk cells): 70.48 ± 3.19 %
- Current stimulation (%) α1β2γ2 (1 μM with GABA at EC5, Ltk cells): 24.28 ± 1.70 %
- Current stimulation (%) α1β2γ2 (3 μM with GABA at EC5, Ltk cells): 8.23 ± 1.01 %
- Current stimulation (%) α1β2γ2 (30 μM with GABA at EC5, Ltk cells): 0.35 ± 0.49 %
